Assay results as given in publication PMC2832585 (Bioorganic & medicinal chemistry, 2009).

Target: human β2-adrenergic receptors (Homo sapiens, UniProt P07550)
Assay: β2-AR mediated stimulation of cAMP accumulation in HEK cells
Details: for % Stimulation: induced stimulation of cAMP accumulation, HEK cells containing human β2-AR

Row | SMILES | agonist classification with respect to cAMP stimulation | % Stimulation
1 | CC[C@H](Cc1ccc(O)cc1)NC[C@H](O)c1cc(O)cc(O)c1 [(R,R)-52, (R,R-(−)-5-(1-Hydroxy-2-(1-hydroxyphenyl)butan-2-ylamino)ethyl) benzene-1,3-diol] | full β2-AR agonists | –
2 | COc1ccc(C[C@@H](C)NC[C@H](O)c2cc(O)cc(O)c2)cc1 [(R,R)-2, (R,R)-methoxyfenoterol] | – | 136 ± 11%
3 | COc1ccc(C[C@H](C)NC[C@H](O)c2cc(O)cc(O)c2)cc1 [(R,S)-2] | – | 120 ± 19%
